From patent US20060052435A1, “Selective dopamin d3 receptor agonists for the treatment of sexual dysfunction” (priority 2001, published 2006)

Legend:
anaesthetised dog [1] = assay: haemodynamics in the anaesthetised dog; format: in vivo
anaesthetised dog [2] = assay: emesis in the chloralose anaesthetised dog; conditions: s.c., escalating doses 3-3000 μg kg^−1

For `CCCNC1CCc2nc(N)sc2C1.Cl.Cl` (stereo not drawn) [Pramipexole, 2-amino-4,5,6,7-tetrahydro-6-propylamino-benzthiazole-dihydrochloride], the “cardiac output at the highest dose levels” value (anaesthetised dog [1]; dog, in vivo) was “approximately doubled”, the “Geometric mean ED30 (fall in TPR)” value (anaesthetised dog [1]; male, beagle, dog, in vivo, 30 min) was 8.9 μg/kg s.c and the “effect on cardiac output and heart rate” value (anaesthetised dog [1]; s.c.) was “increases in cardiac output and heart rate”. For the same compound, the “effect on mean blood pressure” value (anaesthetised dog [1]; s.c., doses up to 3000 μg/kg) was “clear effect on mean blood pressure”, the “effect on total vascular resistance (TVR; TPR)” value (anaesthetised dog [1]; s.c., doses up to 3000 μg/kg) was “reduction in total vascular resistance” and the “dose at which emesis was observed” value (anaesthetised dog [2]) was 30 µg/kg.
